We go through 2 molecules from patent US9604932B2 (priority 2013, dated 2017).

“And” between values parts separate entries of the source, which are not always exact repeats. Equal entries are not always repeated.

The test system of this assay is Cl2 inhalational lung injury (CILI) in mice. The assay can be described thus: Murine Cl2 exposure model (CILI), lung histology score. As to conditions: for Effect on CILI (histology scores, FIG. 2): 2 and 6 hours post 60 minute Cl2 exposure; for Histology score, Mean: n=4.
[1] abbreviates: R-107 in olive oil 10 mg/kg/dose IP 2 and 6 hours post 60 minute Cl2 (400 ppm), 24 hours.

Take “3-nitratomethyl-2,2,5,5-tetramethylpyrrolidinyloxy”: the “Effect on CILI (histology scores, FIG. 2)” value (R-100 in HPCD, 80 mg/kg/dose IP, 24 hours post exposure) was “significantly attenuated CILI”.

Take `CC(=O)ON1C(C)(C)CC(CO[N+](=O)[O-])C1(C)C` (stereo not shown) [R-107, 2,2,5,5-tetramethyl-3-(nitrooxymethyl)pyrrolidin-1-yl acetate]: the “Effect on CILI (histology scores, FIG. 2)” value (R-107 in PEG-400, 100 mg/kg/dose IP, 24 hours post exposure) is “significantly attenuated CILI”. The “Histology score, Mean” value by setting is: (R-107 in oil 30 mg/kg/dose IP 2 and 6 hours post 60 minute Cl2 (400 ppm), 24 hours) 2.64; (R-107 in oil 80 mg/kg/dose IP 2 and 6 hours post 60 minute Cl2 (400 ppm), 24 hours) 1.88; under setting [1], 3.18. Also, the “Effect on CILI (histology scores), dose response” value (R-107 in oil 10, 30, 80 mg/kg/dose IP, 24 hours post exposure) was “dose-responsively attenuated CILI”. For the same molecule, the “Histology score, individual mice” value under setting [1] was 3.2 and 3.0 (2×) and 3.5.
